Where two headings read alike, the source gives them in different places.
Columns and labels:
[1] = biological target: CYP3A4 relative to CYP2A6 (Homo sapiens (Human), UniProt P08684); assay: in vitro
Method: (§1) To gain insight into the selectivity of the synthetic compounds, nicotine, nicotine related alkaloids and nicotine metabolites for inhibition of other CYPs, we examined the major CYP present in human liver (i.e., CYP 3A4). […] A typical incubation mixture ([…] ), 0.5 mM NADP^+, 2.0 mM G6P, 1 U of G6P dehydrogenase, […] inhibitor was added last as to minimize interaction with the protein. After mixing on ice, the reaction was initiated by the addition of substrate and incubated at 37° C. with shaking in air. Organic extracts were injected onto a Hitachi L-7100 system equipped with a Hitachi L-7400 UV detector. Separations were done with an Altex Ultrasphere ODS (4.6 mm×250 mm, 5 μm) column. The analytes were eluted with an isocratic solvent system consisting of water/acetonitrile/methanol (30:10:60, v/v/v) at a flow rate of 1.0 mL/min. […] Quantification of substrate and metabolite was determined from peak areas of the chromatogram and comparison with standard curves. IC50 values were determined as described below.
(§2) To measure CYP3A4 activity, testosterone 6-hydroxylation was determined.

By UniProt entry, the sequences of proteins in these tests, tags left out. Where a name states a change or a piece, a line headed by the entry shows the natural chain unless it says otherwise.
UniProt P08684, whole entry: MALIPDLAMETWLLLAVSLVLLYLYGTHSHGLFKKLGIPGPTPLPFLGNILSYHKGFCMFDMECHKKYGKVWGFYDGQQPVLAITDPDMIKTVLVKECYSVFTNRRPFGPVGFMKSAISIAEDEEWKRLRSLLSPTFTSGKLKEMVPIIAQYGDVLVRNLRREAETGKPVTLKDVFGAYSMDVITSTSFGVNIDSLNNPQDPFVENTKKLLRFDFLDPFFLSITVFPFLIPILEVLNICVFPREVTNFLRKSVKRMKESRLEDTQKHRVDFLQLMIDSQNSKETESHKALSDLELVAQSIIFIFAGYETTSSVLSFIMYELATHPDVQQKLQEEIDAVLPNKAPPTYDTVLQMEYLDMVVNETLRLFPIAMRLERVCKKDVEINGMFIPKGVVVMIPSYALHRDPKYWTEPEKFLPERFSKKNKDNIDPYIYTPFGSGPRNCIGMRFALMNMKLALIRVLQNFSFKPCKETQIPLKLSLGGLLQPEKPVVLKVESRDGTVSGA
UniProt P11509: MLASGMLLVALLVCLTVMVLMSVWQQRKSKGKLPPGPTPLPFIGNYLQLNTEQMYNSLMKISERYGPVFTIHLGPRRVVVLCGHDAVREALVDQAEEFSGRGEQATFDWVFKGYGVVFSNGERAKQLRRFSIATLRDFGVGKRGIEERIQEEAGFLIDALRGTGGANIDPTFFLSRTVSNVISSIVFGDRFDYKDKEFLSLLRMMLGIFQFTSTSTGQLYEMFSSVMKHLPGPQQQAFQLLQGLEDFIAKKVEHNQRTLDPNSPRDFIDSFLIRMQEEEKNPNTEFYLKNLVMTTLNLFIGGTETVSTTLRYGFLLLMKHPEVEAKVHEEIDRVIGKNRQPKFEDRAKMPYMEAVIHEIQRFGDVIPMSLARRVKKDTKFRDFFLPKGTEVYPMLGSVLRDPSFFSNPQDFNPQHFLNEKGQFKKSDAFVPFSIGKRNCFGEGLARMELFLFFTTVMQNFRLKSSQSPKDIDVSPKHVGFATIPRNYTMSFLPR
UniProt P20813: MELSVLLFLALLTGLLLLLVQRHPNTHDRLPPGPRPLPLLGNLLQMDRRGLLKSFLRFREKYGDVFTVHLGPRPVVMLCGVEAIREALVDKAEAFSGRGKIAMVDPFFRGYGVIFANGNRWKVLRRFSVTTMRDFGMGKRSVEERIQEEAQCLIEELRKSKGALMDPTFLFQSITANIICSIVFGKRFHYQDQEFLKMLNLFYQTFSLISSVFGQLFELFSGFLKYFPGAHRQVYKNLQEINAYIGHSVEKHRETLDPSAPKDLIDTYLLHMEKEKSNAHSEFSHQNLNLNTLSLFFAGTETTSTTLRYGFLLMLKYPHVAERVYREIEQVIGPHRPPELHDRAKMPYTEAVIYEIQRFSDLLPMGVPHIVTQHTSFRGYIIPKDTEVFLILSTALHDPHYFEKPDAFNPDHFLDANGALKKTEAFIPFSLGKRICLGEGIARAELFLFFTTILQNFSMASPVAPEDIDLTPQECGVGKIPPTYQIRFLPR
UniProt P10635, whole entry: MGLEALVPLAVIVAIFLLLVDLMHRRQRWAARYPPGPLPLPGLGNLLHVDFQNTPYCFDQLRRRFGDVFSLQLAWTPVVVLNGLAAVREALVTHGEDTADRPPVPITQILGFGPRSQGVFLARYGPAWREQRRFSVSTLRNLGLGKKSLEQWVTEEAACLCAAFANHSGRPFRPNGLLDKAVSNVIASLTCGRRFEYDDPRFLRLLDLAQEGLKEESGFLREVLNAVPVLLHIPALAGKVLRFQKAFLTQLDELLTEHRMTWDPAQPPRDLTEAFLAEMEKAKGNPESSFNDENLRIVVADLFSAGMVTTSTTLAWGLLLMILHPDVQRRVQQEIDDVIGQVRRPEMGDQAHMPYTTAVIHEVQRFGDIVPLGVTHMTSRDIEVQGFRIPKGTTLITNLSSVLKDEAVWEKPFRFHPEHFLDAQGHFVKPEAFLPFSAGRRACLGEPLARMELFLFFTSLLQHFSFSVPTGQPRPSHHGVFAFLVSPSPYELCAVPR
UniProt P05181: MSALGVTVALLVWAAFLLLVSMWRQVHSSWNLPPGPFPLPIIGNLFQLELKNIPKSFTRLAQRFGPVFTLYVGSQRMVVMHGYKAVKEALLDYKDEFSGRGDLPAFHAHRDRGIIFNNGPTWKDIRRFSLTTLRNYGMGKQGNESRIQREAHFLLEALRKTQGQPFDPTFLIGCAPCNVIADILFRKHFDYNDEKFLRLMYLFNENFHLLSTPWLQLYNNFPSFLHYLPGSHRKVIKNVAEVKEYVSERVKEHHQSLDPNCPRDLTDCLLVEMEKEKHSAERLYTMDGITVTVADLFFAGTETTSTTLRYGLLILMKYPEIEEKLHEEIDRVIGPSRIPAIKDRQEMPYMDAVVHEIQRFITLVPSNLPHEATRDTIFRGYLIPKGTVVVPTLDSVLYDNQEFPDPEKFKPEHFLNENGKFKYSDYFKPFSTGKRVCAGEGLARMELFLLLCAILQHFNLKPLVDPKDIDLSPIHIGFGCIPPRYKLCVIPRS
UniProt P11712, whole entry: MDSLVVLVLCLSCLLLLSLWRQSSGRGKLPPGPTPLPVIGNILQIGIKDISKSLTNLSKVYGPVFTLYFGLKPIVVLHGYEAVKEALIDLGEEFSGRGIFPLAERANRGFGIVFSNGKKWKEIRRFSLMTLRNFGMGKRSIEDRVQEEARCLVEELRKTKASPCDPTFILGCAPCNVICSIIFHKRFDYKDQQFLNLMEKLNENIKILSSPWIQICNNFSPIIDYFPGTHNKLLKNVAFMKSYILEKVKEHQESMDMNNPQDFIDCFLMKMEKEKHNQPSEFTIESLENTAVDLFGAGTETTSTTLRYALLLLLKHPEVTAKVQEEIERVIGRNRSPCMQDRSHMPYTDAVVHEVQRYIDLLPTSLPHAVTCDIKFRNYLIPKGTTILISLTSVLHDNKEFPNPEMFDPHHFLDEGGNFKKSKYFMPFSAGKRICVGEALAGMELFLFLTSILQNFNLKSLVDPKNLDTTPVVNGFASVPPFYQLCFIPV
UniProt P33261, whole entry: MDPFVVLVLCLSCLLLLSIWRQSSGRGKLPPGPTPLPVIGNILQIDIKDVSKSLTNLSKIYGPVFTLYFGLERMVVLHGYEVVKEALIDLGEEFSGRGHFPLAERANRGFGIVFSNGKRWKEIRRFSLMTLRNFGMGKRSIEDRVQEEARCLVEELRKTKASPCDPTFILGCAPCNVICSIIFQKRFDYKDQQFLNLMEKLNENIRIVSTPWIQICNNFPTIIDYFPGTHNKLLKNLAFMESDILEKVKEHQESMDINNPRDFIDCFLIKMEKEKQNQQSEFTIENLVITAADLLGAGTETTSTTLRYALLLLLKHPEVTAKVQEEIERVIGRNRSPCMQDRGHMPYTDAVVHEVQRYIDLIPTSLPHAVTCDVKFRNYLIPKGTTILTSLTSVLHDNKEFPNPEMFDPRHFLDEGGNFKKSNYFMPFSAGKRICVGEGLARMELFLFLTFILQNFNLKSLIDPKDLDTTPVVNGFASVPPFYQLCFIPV

human CYP2A6 [2] = biological target: T1, human CYP2A6 (Homo sapiens (Human), UniProt P11509)
CYP2B6 = CYP2B6 (Homo sapiens (Human), UniProt P20813); assay: CYP2B6 Vivid blue substrate O-dealkylation inhibition; format: biochemical
[3] = biological target: CYP2D6 relative to CYP2A6 (Homo sapiens (Human), UniProt P10635); assay: CYP2D6 Vivid blue substrate O-dealkylation inhibition; format: biochemical
[4] = biological target: CYP2E1 relative to CYP2A6 (Homo sapiens (Human), UniProt P05181); assay: CYP2E1 Vivid blue substrate O-dealkylation inhibition; format: biochemical; details: human CYP2E1 versus human CYP2A6, read-out: Selectivity ratio (IC50 CYPX/IC50 CYP2A6) 2E1/2A6
[5] = biological target: CYP2B6 relative to CYP2A6 (Homo sapiens (Human), UniProt P20813); assay: CYP2B6 Vivid blue substrate O-dealkylation inhibition; format: biochemical; details: human CYP2B6 versus human CYP2A6, read-out: Selectivity ratio (IC50 CYPX/IC50 CYP2A6) 2B6/2A6
[6] = biological target: CYP2C9 relative to CYP2A6 (Homo sapiens (Human), UniProt P11712); assay: CYP2C9 Vivid blue substrate O-dealkylation inhibition; format: biochemical
[7] = biological target: CYP2C19 relative to CYP2A6 (Homo sapiens (Human), UniProt P33261); assay: CYP2C19 Vivid blue substrate O-dealkylation inhibition; format: biochemical
CYP3A4 = CYP3A4 (Homo sapiens (Human), UniProt P08684); assay: in vitro; details: pH 7.5
Method: as §1, §2

human CYP2A6 [8] = biological target: T1, human CYP2A6; assay: CYP2A6 mediated coumarin 7-hydroxylation inhibition
[9] = pH 7.5, Selectivity Ratio: IC50 (Inhibition of CYP3A4)/IC50 (Inhibition of CYP2A6)
[10] = pH 7.5, Selectivity ratio (IC50 CYPX/IC50 CYP2A6) 3A4/2A6

`O/N=C\c1ccc(-c2cccnc2)o1` [Compound 72] showed a selectivity ratio [1, 9] of 5.
3-(Pyridin-3-yl)pyridine [Compound 31] was tested, and the IC50 (human CYP2A6 [2]; human, pH 7.5) was 7.44 ± 1.32 µM.
Work on `NCc1ccc(-c2cccnc2)s1` [Compound 38a, (5-(Pyridin-3-yl)thiophen-2-yl)methanamine] yielded an IC50 (CYP2B6; insect cell microsomes expressing CYP2B6, 0.2M potassium phosphate buffer, mean of at least 3 determinations ± SD, read-out: IC50 ± SD 2B6) of 52.2 ± 7.6 µM, an IC50 (human CYP2A6 [2]; human, pH 7.5) of 0.17 ± 0.02 µM and a Ki (human CYP2A6 [2]; human, pH 7.5) of 0.02 ± 0.003 µM.
`c1cncc(-c2cccnc2)c1` [Compound 30] was tested, and the selectivity ratio [1, 9] was > 61.
For `c1cncc(-c2cccnc2)c1` [Compound 31, 3-(Pyridin-3-yl)pyridine], the selectivity ratio at 40 min ([3]; pH 8, human CYP2D6 versus human CYP2A6, read-out: Selectivity ratio (IC50 CYPX/IC50 CYP2A6) 2D6/2A6) was > 45, the selectivity ratio at 40 min ([4]; pH 8) was 45 and the selectivity ratio [1, 10] was 10. For the same compound, the selectivity ratio at 40 min ([5]; pH 8) was 22, the selectivity ratio at 40 min ([6]; pH 8, human CYP2C9 versus human CYP2A6, read-out: Selectivity ratio (IC50 CYPX/IC50 CYP2A6) 2C9/2A6) was > 45 and the selectivity ratio at 40 min ([7]; pH 8, human CYP2C19 versus human CYP2A6, read-out: Selectivity ratio (IC50 CYPX/IC50 CYP2A6) 2C19/2A6) was > 45.
In the case of `Cc1cscc1-c1cccnc1` [Compound 17], the “Selectivity ratio (IC50 CYPX/IC50 CYP2A6) 3A4/2A6” value (CYP3A4) is reported as 20 and the selectivity ratio [1, 9] is reported as < 13.
`NCc1ccc(-c2cccnc2)s1` [Compound 1] was tested, and the IC50 (human CYP2A6 [2]; human, pH 7.5) was 0.172 ± 0.017 µM.
`NCc1ccc(-c2cccnc2)s1` [Compound 1a] was tested, and the IC50 (CYP2B6; Table 4, unit inferred, read-out: 2B6 IC50 ± SD) was 52.2 ± 7.6 µM and the IC50 (human CYP2A6 [2]) was 0.17 ± 0.02 µM.
With `OCc1ccc(-c2cccnc2)o1` [Compound 81] the IC50 (human CYP2A6 [8]; read-out: CYP2A6 IC50, coumarin 7-hydroxylation) was 211 ± 100 µM.
`Cc1cscc1-c1ccc(F)nc1` [Compound 21, 2-Fluoro-5-(4-methylthiophen-3-yl)pyridine] was tested, and the selectivity ratio at 40 min ([3]; recombinant CYP2D6 BACULOSOMES, pH 8, probe Vivid blue substrate (10 μM), O-dealkylation, human CYP2D6 versus human CYP2A6, read-out: Selectivity ratio (IC50 CYPX/IC50 CYP2A6) 2D6/2A6) was 227, the selectivity ratio at 40 min ([4]; recombinant CYP2E1 BACULOSOMES, pH 8, probe Vivid blue substrate (10 μM), O-dealkylation) was 284 and the selectivity ratio [1, 10] was 2. The selectivity ratio at 40 min ([5]; recombinant CYP2B6 BACULOSOMES, pH 8, probe Vivid blue substrate (5 μM), O-dealkylation) was 9.1, the selectivity ratio at 40 min ([6]; recombinant CYP2C9 BACULOSOMES, pH 8, probe Vivid blue substrate (10 μM), O-dealkylation, human CYP2C9 versus human CYP2A6, read-out: Selectivity ratio (IC50 CYPX/IC50 CYP2A6) 2C9/2A6) was > 308 and the selectivity ratio at 40 min ([7]; recombinant CYP2C19 BACULOSOMES, pH 8, probe Vivid blue substrate (10 μM), O-dealkylation, human CYP2C19 versus human CYP2A6, read-out: Selectivity ratio (IC50 CYPX/IC50 CYP2A6) 2C19/2A6) was 32.
`CN(C)Cc1ccc(-c2cccnc2)o1` [Compound 2c] showed an IC50 (human CYP2A6 [8]; read-out: 2A6 IC50 ± SD, Table 4, unit not given (same data in Table 1 in μM)) of 28.3 ± 18.3 µM.
`O/N=C/c1ccc(-c2cccnc2)o1` [Compound 39] showed a selectivity ratio [1, 9] of 41.
